The target in this assay is CPSF6_(313–327) peptide (cleavage and polyadenylation specific factor 6, residues 313–327) (UniProt Q16630-2 313-327, N-terminal His tag omitted; strain not given, SIVmac Gag isolate Mm142-83 taken; CA residues 1-144 by alignment to HIV-1 CA 1-146 (CA N56 and N73 = precursor N191 and N208)). Put plainly: ITC.

We go through 1 molecule from paper PMC3431306 (2012).

B1: SIVmac CA N-terminal domain (CA^N) (domain or fragment)
chain: not shown
For orientation: Kd means a measure of binding affinity in units of concentration. As to B1, the Kd worked out at 219 µM.
